Measurements taken from ChEMBL document CHEMBL1144284, “Pharmacophore identification of alpha(1A)-adrenoceptor antagonists” (Bioorg Med Chem Lett, 2005).

How the values were obtained:
[1] = molecular target: T1, Alpha-1A adrenergic receptor (Homo sapiens, UniProt P35348); test: Binding constant measured against Alpha-1A adrenergic receptor in human prostate; ++:moderately active; assay type: tissue-based, Prostate gland
T1 sequence (P35348 whole entry): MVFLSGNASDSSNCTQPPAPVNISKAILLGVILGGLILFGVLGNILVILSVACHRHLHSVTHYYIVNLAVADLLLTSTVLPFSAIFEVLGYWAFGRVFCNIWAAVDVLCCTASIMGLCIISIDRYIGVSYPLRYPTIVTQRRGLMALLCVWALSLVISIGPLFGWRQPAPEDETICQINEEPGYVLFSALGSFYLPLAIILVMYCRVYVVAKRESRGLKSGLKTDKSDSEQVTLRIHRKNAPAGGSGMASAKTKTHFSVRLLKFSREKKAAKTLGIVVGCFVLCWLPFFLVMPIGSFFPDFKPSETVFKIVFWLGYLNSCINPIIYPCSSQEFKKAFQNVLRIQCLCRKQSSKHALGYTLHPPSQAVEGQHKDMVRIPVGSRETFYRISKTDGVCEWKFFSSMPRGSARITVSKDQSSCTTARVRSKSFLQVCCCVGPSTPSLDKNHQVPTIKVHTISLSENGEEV

[2] = molecular target: T1, Alpha-1A adrenergic receptor; test: Binding constant measured against Alpha-1A adrenergic receptor in human prostate; +:inactive; assay type: tissue-based, Prostate gland

SMILES: Cc1c[nH]c(=O)n(CCCN2CCN(c3ccc(F)cc3OCC(F)(F)F)CC2)c1=O
- Ki [1]: 1.3 nM

SMILES: O=C1CC2(CCCC2)CC(=O)N1CCN1CCN(c2cc(Cl)ccc2Cl)CC1
- Ki [2]: 130 nM
